Apparent affinities of Ab-14 variants for a coronavirus HR2 peptide

Reference: Engelhart et al. 2022, doi:10.1038/s41597-022-01779-4. File: FLAb, binding data.

Target peptide (SARS-CoV-2 spike, HR2 region): PDVDLGDISGINAS

Parent: Ab-14, a human scFv built as VH, three GGGGS repeats, VL. Only the CDRs of the light chain vary.
VH: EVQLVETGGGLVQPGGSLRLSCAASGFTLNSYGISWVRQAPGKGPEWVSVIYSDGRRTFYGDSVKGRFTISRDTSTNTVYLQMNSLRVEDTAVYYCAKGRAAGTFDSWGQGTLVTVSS
VL: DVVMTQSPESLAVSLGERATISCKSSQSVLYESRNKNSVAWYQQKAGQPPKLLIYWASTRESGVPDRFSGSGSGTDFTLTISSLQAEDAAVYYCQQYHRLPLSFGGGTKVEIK

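The parent was found by panning a naive human phage display library on the peptide. Library AAYL50 holds single substitutions and randomly drawn double and triple substitutions in the CDRs. Affinity was read by AlphaSeq, a pooled yeast mating assay with surface-displayed partners. The frequency of each diploid, read from paired DNA barcodes, reflects how well the two displayed proteins bind. Each replicate has its own calibration line, from reference interactions of the BCL2 family. Each pool was mated in three replicate cultures.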

Variants are written as CDR1, CDR2 and CDR3 of the light chain (limits as in the source). Parent: KSSQSVLYESRNKNSVA, WASTRES, QQYHRLPLS. Values are log10 of the apparent Kd in nM; lower means stronger binding. "ND" means that the variant was in the library but no mating with the target was seen in that replicate; the authors take this as a sign of poor binding, and no number exists. Empty control strains, which show no peptide, gave a signal in 18% of pairings with library AAYL50; the median was 4.19 and 95% of these signals were weaker than 2.99. No background was subtracted. For each scFv, signals with the empty controls are counted beside the result, with their mean in brackets. Parent in this assay: reference entry 0.65, copy in this library 1.68.

CDR-L1	CDR-L2	CDR-L3	log10 Kd (nM) by replicate	signal with controls
KSSQSVLYESRNKNSVA	GSSTRES	QQYHRLPLS	-0.35 / 0.00 / -0.23	3/9 (3.83)
KSSQSVLYFSRNKNSVA	WASTLES	QQYHRLVLS	ND / ND / ND	0/9
KSSQSVLYESRNKNPVA	HAPTRES	QQYHRLPLS	ND / ND / ND	2/9 (4.29)
KSSASVLYESRNKNSVA	GASTRES	QQYHRVPLS	ND / ND / ND	0/9
KSSQSVLHDSRNKNSVA	WASCRES	QQYHRLPLS	0.88 / 1.00 / 1.08	0/9
KSSQSVLLESRNKNWVA	WASTWES	QQYHRLPLS	ND / ND / ND	2/9 (3.73)
KSSQSVPYPSRNKNSVA	WASVRES	QQYHRLPLS	ND / ND / ND	0/9
KSSQSVLYESRNKNSVP	WASTREP	QQYHRLKLS	ND / ND / ND	4/9 (4.44)
KSSQQVLYESRNKNSVA	WASTRES	QMYHRFPLS	ND / ND / ND	1/9 (2.99)
KSSQSVLYESRNKNSVA	WAACRWS	QQYHRLPLS	ND / 5.08 / 3.74	2/9 (4.04)
KSSQSPLYESRNKNSVN	WASNRES	QQYHRLPLS	ND / 3.37 / ND	2/9 (3.78)
KSSQSVLYNSRNKKSVA	WASTRES	QQYHRLPHS	3.84 / 4.85 / 3.81	0/9
KSSQSVLYSSRNKNSVA	WASARES	QQYHRLPLS	3.31 / 2.57 / 3.08	4/9 (4.00)
KSCQSVLYESRNKNSVA	WASPRES	QQYHRLPLG	ND / ND / ND	0/9
KSSQSVLYESRNANSVA	WASTRGS	QQPHRLPLS	3.77 / 2.17 / 3.03	0/9
KSSQSVLYESRNKNSVA	WFSTRDS	QQYHRLPLL	ND / ND / ND	1/9 (3.08)
KSSGSVSYESRNKNSVA	WASTRES	QQYHTLPLS	0.85 / 0.81 / 0.90	1/9 (5.58)
KSSQSVLYGSRNKNSVA	WASTRES	QQYHREPMS	2.27 / 2.62 / 2.92	0/9
KSFQGVLYESRNKNSVA	WASTRES	QVYHRLPLS	3.85 / 4.46 / 5.01	5/9 (4.61)
KLSQSVLYESRNKTSVA	WASTRES	QHYHRLPLS	1.21 / 1.35 / 1.17	3/9 (4.41)
RSSQSVLYESRNKNSVA	WASTRES	TQYHRLPPS	ND / 3.92 / 6.06	4/9 (4.50)
KSSQSVLYESRNKNSVT	WASKRES	QQYHRRPLS	ND / ND / ND	0/9
NSSQSVLHESRNKNSVA	WASTREK	QQYHRLPLS	1.62 / 1.41 / 1.74	2/9 (2.89)
CSSQSVLYEPRNKNSVA	WASTRES	QQYHRLPLS	1.48 / 1.66 / 1.73	1/9 (4.23)
KSSQLVLYESRNKNSVA	WASMRES	QQYHRLGLS	3.69 / ND / 4.32	4/9 (4.24)
KSSQSVLYESRKKNSVA	WASTVRS	QQYHRLPLS	ND / ND / ND	0/9
KSSQSVLYESRNKNSVA	WAATRES	QTYIRLPLS	ND / ND / ND	0/9
KSSQQVLYESRNKNSIA	WASTRES	QQYHRLPFS	1.03 / 1.06 / 1.07	0/9
KSSQSVFYESRNKTSVH	WASTRES	QQYHRLPLS	ND / ND / ND	0/9
KSSLSVSYESRNKNSVA	WASTRES	QQYHRLPLS	0.58 / 0.95 / 0.75	3/9 (5.06)
KESQSVLYESRNKNSVA	WASTRES	GQYHGLPLS	1.32 / 1.48 / 1.55	2/9 (4.11)
KSSQSVLYESRNKNSVA	VASACES	QQYHRLPLS	ND / 5.12 / ND	1/9 (5.02)
KSAQSVLYLSRNKNSVA	WASTRSS	QQYHRLPLS	2.05 / 2.08 / 2.70	0/9

Excerpt, the first 5 entries:

| CDR-L1 | CDR-L2 | CDR-L3 | log10 Kd (nM) by replicate | signal with controls |
|---|---|---|---|---|
| KSSQSVLYESRNKNSVA | GSSTRES | QQYHRLPLS | -0.35 / 0.00 / -0.23 | 3/9 (3.83) |
| KSSQSVLYFSRNKNSVA | WASTLES | QQYHRLVLS | ND / ND / ND | 0/9 |
| KSSQSVLYESRNKNPVA | HAPTRES | QQYHRLPLS | ND / ND / ND | 2/9 (4.29) |
| KSSASVLYESRNKNSVA | GASTRES | QQYHRVPLS | ND / ND / ND | 0/9 |
| KSSQSVLHDSRNKNSVA | WASCRES | QQYHRLPLS | 0.88 / 1.00 / 1.08 | 0/9 |